Reference: patent US9315514B2, “1,3-dioxanomorphides and 1,3-dioxanocodides” (dated 2016)

Key:
μ-opioid receptor = μ-opioid receptor (Homo sapiens (Human), UniProt P35372); assay: μ-opioid receptor [35S]GTPγS functional assay; details: for μ-opioid receptor Emax: maximal effect relative to DAMGO; for pEC50: read-out: μ-opioid receptor EC50, μ GTP EC50
κ-opioid receptor = κ-opioid receptor (Homo sapiens (Human), UniProt P41145); assay: κ-opioid receptor [35S]GTPγS functional assay; details: for κ-opioid receptor Emax: maximal effect relative to U69,593
δ-opioid receptor = δ-opioid receptor (Homo sapiens (Human), UniProt P41143); assay: δ-opioid receptor activity in PerkinElmer ligand binding and cellular assays

With COc1ccc2c3c1O[C@H]1[C@@]45C=C[C@@]6(C[C@@H]4[C@@](C)(C(C)(C)C)OCO5)[C@@H](C2)N(CC2CC2)CC[C@]316 the “μ-opioid receptor Emax” value (μ-opioid receptor) was 36%, the pEC50 (μ-opioid receptor) was 6.34 and the “κ-opioid receptor Emax” value (κ-opioid receptor) was 40%.

With C=CCN1CC[C@]23c4c5ccc(O)c4O[C@H]2[C@@]24CC[C@@]3(C[C@@H]2[C@@](C)(C(C)(C)C)OCO4)[C@H]1C5 the δ-opioid receptor activity (δ-opioid receptor) was “shown δ-opioid receptor activity”.

CC(C)(C)[C@@]1(C)OCO[C@]23CC[C@@]4(C[C@@H]21)[C@H]1Cc2ccc(OCc5ccccc5)c5c2[C@@]4(CCN1CC1CC1)[C@H]3O5 was tested, and the “μ-opioid receptor Emax” value (μ-opioid receptor) was 56%, the pEC50 (μ-opioid receptor) was 6.02 and the “κ-opioid receptor Emax” value (κ-opioid receptor) was 0%.

In the case of COc1ccc2c3c1O[C@H]1[C@@]45CC[C@@]6(C[C@@H]4[C@@](C)(C(C)(C)C)OCO5)[C@@H](C2)N(CC2CC2)CC[C@]316, the “μ-opioid receptor Emax” value (μ-opioid receptor) was 43%, the “κ-opioid receptor Emax” value (κ-opioid receptor) was 31% and the pEC50 (κ-opioid receptor; read-out: κ-opioid receptor EC50, κ GTP EC50) was 6.07.

In the case of C=CCN1CC[C@]23c4c5ccc(OC)c4O[C@H]2[C@@]24CCC3(C[C@@H]2[C@@](C)(C(C)(C)C)OCO4)[C@H]1C5, the δ-opioid receptor activity (δ-opioid receptor) was “shown δ-opioid receptor activity”.

pEC50: −log10 of the molar value.
